Data on 50 compounds can be found in PubChem BioAssay AID588627 (Johns Hopkins Ion Channel Center, 2011).

Protein sequences, listed by entry. Tags and fused reporters are not part of them.
UniProt Q96LB2, whole entry: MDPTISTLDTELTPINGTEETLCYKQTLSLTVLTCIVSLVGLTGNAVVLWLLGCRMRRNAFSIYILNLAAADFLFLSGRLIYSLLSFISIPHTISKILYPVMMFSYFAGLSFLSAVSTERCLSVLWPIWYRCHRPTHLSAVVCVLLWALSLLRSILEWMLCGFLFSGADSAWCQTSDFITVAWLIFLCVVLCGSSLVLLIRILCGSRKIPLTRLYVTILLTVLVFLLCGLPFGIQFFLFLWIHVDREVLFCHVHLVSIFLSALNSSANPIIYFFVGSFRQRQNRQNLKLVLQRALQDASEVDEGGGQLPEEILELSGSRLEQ

The entries are a selection whose mix differs from that of the whole data set. Calls of active or inactive are those of the source.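 Rule for the calls: active = calcium response B-score plate-corrected fluorescence ratio at least 3 library SD, with starting fluorescence B-score inside 5 SD; inactive = the rest.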

This experiment addresses Mas-related G-protein coupled receptor member X1 (Homo sapiens) (UniProt Q96LB2). Kind of experiment: agonists of human MrgX1 receptor, primary screen, HEK293 cells, Fluo-4 calcium flux (AID 588627).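 For B-score: B-score of the peak-minus-trough calcium fluorescence change over baseline.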 Particulars: Fluo-4 calcium fluorescence, agonist mode, at 10 µM; hits give high values. Put shortly: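 Material: MrgX1-expressing HEK293 cells; input: 15,000 cells per well; doses: test compound given as first of three sequential additions; schedule: overnight plating before 1 h dye loading; technique: Fluo-4 NW calcium-flux fluorescence, kinetic read; evaluation: baseline-normalised fluorescence change ratio, B-scored; control set: plate-wise positive and negative controls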
Turning to `Cc1cccc(C)c1OP(C)(=O)Nc1ccc(SC(F)(F)F)cc1` (stereo not given), the result was inactive.

Turning to `CP(=O)(Nc1ccc(SC(F)(F)F)cc1)Oc1ccc(Cl)cc1` (stereo not given), the result was inactive.

In the case of `COP1(=S)c2c(C)nn(CCC#N)c2N=C(c2ccc(F)cc2)N1C` (stereo not given), the result was inactive.

For `Cc1cc(C)cc(OP(C)(=O)Nc2ccc(SC(F)(F)F)cc2)c1` (stereo not given), the outcome was inactive.

Regarding `O=C(Nc1ccncc1[N+](=O)[O-])c1ccc([N+](=O)[O-])cc1[N+](=O)[O-]`, the outcome was inactive.

Regarding `CCc1ccc(OP(C)(=O)N2CCN(c3ccc([N+](=O)[O-])cc3)CC2)cc1` (stereo not given), the outcome was inactive.

Consider `O=C(COc1ccccc1)OC1CN2CCC1CC2` (stereo not given), for which the outcome was inactive.

As for `CP(=O)(NC(=O)Nc1ccccc1)Oc1ccccc1` (stereo not given), the result was inactive.

Regarding `CCOC(=O)c1ccc(NP(C)(=O)Oc2ccc(OC)cc2)cc1` (stereo not given), the outcome was inactive.

`CCOC(=O)c1ccc(NC(=O)C(C)(CCl)SC)cc1` (stereo not given): the result was inactive.

As for `O=[N+]([O-])c1cc([N+](=O)[O-])c(O)c([N+](=O)[O-])c1.c1ccc(Oc2ccncc2)cc1`, the result was inactive.

As to `CCOP(C)(=S)SCC(=O)NC(C)C(=O)O` (stereo not given), the outcome was inactive.

`O=C(OC1CN2CCC1CC2)c1cccc([N+](=O)[O-])c1` (stereo not given): the result was inactive.

As to `CP(=O)(Nc1ccccn1)Oc1ccc(Cl)cc1` (stereo not given), the outcome was inactive.

As for `CCC(C)N(CC(C)C)C(=S)SC(NC(C)=O)C(Cl)(Cl)Cl` (stereo not given), the outcome was inactive.

As to `CCOC(=O)Nc1ccc([As](=O)(O)O)c(O)c1`, the result was inactive.

In the case of `Cc1cc(SC(NC(=O)c2ccccc2)C(Cl)(Cl)Cl)nc(C(C)C)n1` (stereo not given), the outcome was inactive.

Take `CCOC(=O)Nc1cccc([As](=O)(O)O)c1`: the outcome was inactive.

As to `CP(=S)(Nn1cnnc1)Oc1ccccc1` (stereo not given), the result was inactive.

Take `O=[N+]([O-])c1ccc(Nc2ccc(Oc3ccc([N+](=O)[O-])cc3[N+](=O)[O-])cc2)c([N+](=O)[O-])c1`: the outcome was inactive.

As for `CP(=O)(Nc1ccccc1Br)Oc1ccccc1` (stereo not given), the result was inactive.

On to `COc1ccccc1OP(C)(=O)Nc1ccccc1` (stereo not given), for which the result was inactive.

With `O=P(Nc1ccccn1)(c1cccc2ccccc12)c1cccc2ccccc12`, the result was inactive.

Turning to `Cc1cc(SC(NC=O)C(Cl)(Cl)Cl)ncn1` (stereo not given), the outcome was inactive.

`O=[As](O)(c1ccc(O)cc1)c1ccccc1O`: the result was inactive.

Turning to `C[As](=O)(O)c1cccc(C(=O)O)c1`, the result was inactive.

As to `O=[N+]([O-])c1cc([N+](=O)[O-])c(Nc2cccnc2)c([N+](=O)[O-])c1`, the outcome was inactive.

With `Cc1ccc2nc3c(c(C)c2c1)CC(C(Cl)Cl)S3` (stereo not given), the result was inactive.

For the compound `O=[N+]([O-])c1ccc2c(c1)C=Nc1ccccc1O2`, the B-score was active: 34.6.

As for `Cc1cccc(C)c1OP(C)(N)=O` (stereo not given), the result was inactive.

As for `CC(C)(C)c1ccc(OP(C)(=O)Nc2ccc(SC(F)(F)F)cc2)cc1` (stereo not given), the outcome was inactive.

For `Cc1ccc(OP(=O)(Nc2ccc([N+](=O)[O-])cn2)Oc2ccc(C)cc2)cc1`, the result was inactive.

On to `Cc1ccc(NP(C)(=O)Oc2ccccc2)c(C)c1` (stereo not given), for which the result was inactive.

As for `CC(C)c1ccc(OP(=O)(Nc2ccccn2)Oc2ccccc2F)cc1` (stereo not given), the result was inactive.

Turning to `COc1ccccc1OP(C)(=O)Nc1ccc(C)cc1` (stereo not given), the outcome was inactive.

For the compound `ClCCSc1nnc(-c2cccnc2)o1`, the result was inactive.

With `CCOC(=O)c1ccc(NP(C)(=O)Oc2ccccc2)cc1` (stereo not given), the outcome was inactive.

Take `Cc1cc(C)cc(OP(C)(N)=O)c1` (stereo not given): the outcome was inactive.

For the compound `O=[N+]([O-])c1cc([N+](=O)[O-])c(-c2ccn[nH]2)s1`, the outcome was inactive.

As to `COc1ccc(OP(C)(=O)Nc2cccc(F)c2)cc1` (stereo not given), the result was inactive.

Regarding `CCN(CC)C(=S)SC(NC=O)C(Cl)(Cl)Cl` (stereo not given), the result was inactive.

Take `COc1ccccc1OP(C)(=O)Nc1cc(Cl)ccc1C` (stereo not given): the result was inactive.

For `CC(C)NC(=O)NP(=O)(Oc1ccccc1)Oc1ccccc1`, the result was inactive.

For `Cc1cc(=O)[nH]c(N[N+](=O)[O-])n1`, the result was inactive.

Consider `CCN(CC)CCCOC(=O)C(O)(c1ccccc1)c1ccccc1`, for which the outcome was inactive.

As for `O=C(OC1CN2CCC1CC2)C12CC3CC(CC(C3)C1)C2` (stereo not given), the result was inactive.

Take `Cc1c2c(nc3ccccc13)SC(C(Cl)Cl)C2` (stereo not given): the outcome was inactive.

For `COc1cc(I)ccc1[As](=O)(O)O`, the outcome was inactive.

In the case of `COc1ccc2nc(NP(=O)(c3ccccc3)c3ccccc3)sc2c1`, the result was inactive.

For the compound `COc1ccc(N/C(=N/P(=O)(N2CCOCC2)N2CCOCC2)N2CCOCC2)cc1`, the result was inactive.
